Experimental findings from US5618915 are described below.

The target of test [1] is bovine factor Xa (bovine) (UniProt P00743).
Test [2] concerns the target human plasma kallikrein (human) (UniProt P03952). Put plainly: inhibition of amidolytic activity (substrate S2302).
For test [3], the target named is bovine factor Xa (bovine) (UniProt P00743). Put plainly: inhibition of amidolytic activity (substrate FXa-1), graphical Dixon method.
In test [4] the target is human plasma kallikrein (human) (UniProt P03952). In words: inhibition of amidolytic activity (substrate S2302), graphical Dixon method.
The target of test [5] is recombinant human protein Ca (human) (UniProt P04070). In words: inhibition of amidolytic activity (substrate S2366), graphical Dixon method.
Test [6] shares this target.

As usually defined, the Ki is a dissociation constant, usually derived from enzyme kinetics or from competition with a known ligand. Turning to aprotinin (3-58; 15 Arg+17 Ala+42 Ser), the Ki (nM); amidolytic activity of FXa (substrate FXa-1) in test [1] stood at 150 nM. The substance further had a fold stronger inhibition than the Arg 15 analogue (KFN 772) in test [2] of 10 fold. Also, the Ki in test [3] turned out to be 150 nM; in test [4], 0.1 nM; in test [5], 100 nM.
For the substance aprotinin (3-58; 15 Arg+42 Ser), in test [1], the Ki (nM); amidolytic activity of FXa (substrate FXa-1) came to 1800 nM. For the same substance, the Ki in test [3] came to 1800 nM; in test [4] it was 1 nM; in test [5], 10 nM.
As to “native, bovine pancreatic aprotinin (1-58)”, the Ki (nM); amidolytic activity of protein Ca (substrate S2366) in test [6] was 400 nM. Moreover, the results for the Ki in test [4] and in test [5] were 180 nM and 400 nM, respectively.
